Test results taken from patent publication US5747447A, “Stable polypeptide composition” (COR Therapeutics, priority 1995, dated 1998).

The chains behind the UniProt entries cited, without tags or fusion partners. Residues count along the entry.
UniProt P05106, 27-788: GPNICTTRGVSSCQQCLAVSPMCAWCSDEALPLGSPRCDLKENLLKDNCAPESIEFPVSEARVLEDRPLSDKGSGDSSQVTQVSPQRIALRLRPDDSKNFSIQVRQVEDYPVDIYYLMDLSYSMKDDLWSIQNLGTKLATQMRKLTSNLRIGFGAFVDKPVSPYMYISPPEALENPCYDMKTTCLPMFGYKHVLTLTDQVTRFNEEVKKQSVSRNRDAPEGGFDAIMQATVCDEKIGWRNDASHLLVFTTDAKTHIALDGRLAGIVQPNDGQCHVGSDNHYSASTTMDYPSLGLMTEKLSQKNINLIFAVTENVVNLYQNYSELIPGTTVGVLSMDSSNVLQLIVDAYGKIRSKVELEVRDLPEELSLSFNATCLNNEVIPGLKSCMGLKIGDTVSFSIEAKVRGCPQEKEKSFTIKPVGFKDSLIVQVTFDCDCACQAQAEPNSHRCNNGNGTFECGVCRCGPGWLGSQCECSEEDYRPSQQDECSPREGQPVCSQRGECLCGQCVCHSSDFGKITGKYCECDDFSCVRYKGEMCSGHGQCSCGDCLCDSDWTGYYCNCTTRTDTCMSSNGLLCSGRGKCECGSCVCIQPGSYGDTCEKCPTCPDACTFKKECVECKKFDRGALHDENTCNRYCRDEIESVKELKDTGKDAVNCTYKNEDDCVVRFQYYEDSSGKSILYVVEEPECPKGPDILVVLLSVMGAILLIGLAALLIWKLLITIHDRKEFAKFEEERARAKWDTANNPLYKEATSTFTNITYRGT
UniProt P08514, 32-1039: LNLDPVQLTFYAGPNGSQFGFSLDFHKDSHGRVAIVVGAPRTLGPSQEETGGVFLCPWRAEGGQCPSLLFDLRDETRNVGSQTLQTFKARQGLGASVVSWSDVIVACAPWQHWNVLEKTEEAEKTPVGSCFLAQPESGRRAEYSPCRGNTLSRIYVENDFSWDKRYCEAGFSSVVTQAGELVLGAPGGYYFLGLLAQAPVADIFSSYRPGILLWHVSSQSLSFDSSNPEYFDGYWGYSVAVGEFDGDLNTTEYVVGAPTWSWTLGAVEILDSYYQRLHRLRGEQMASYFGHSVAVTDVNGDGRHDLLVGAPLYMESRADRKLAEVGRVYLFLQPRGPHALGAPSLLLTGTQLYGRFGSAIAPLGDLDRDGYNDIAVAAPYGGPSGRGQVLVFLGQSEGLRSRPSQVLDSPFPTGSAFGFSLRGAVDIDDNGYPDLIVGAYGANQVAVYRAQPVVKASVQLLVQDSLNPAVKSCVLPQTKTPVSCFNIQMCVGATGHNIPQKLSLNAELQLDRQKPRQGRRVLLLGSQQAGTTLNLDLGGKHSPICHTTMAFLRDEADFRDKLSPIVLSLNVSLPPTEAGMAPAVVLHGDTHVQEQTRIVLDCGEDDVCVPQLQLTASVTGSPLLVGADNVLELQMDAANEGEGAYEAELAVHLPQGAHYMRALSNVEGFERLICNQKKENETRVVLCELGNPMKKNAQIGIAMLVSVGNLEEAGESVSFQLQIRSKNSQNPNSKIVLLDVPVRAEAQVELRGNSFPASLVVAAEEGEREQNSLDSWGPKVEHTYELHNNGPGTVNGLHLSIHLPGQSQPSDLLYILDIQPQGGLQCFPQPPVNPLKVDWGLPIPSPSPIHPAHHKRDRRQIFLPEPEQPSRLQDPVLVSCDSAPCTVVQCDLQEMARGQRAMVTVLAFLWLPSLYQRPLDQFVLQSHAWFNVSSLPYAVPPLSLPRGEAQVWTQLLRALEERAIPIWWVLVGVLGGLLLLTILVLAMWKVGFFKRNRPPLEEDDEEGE

Molecular target: ADP-induced human platelet aggregation (Homo sapiens, UniProt P05106+P08514)
Assay: standard aggregation inhibition assay (ADP-induced human platelet aggregation)
Assay type: cell-based
Settings: read-out: Appr, IC50
Excerpt: 2. Standard assays directly applied to platelet aggregation, such as those described by Gann, Z.-R., et al., J Biol Chem (1988) 263:19827-19832; Huang, T. F., et al., J Biol Chem (1987) 262:16157-16163; Biochemistry (1989) 28:661-666, cited above and incorporated herein by reference;

Row | Substance | pIC50
1 | Mvl-K-G-D-W-P-C-NH2 [Analog #49] | 5.82
2 | Mvl-K-G-D-W-P-Pen-NH2 [Analog #58] | 6.00
3 | Mpr-K-G-D-H(2,4-DNP)-P-C-NH2 [Analog #56] | 5.30

pIC50: −log10 of the molar value.
